# Data as given in paper PMC2932872 (Journal of agricultural and food chemistry, 2010).
# Assay: Stability of ^14C-MPS and ^14C-MPO in culture media
# Assay type: physicochemical
# Conditions: DMEM/F12 culture medium with 1% fetal bovine serum, no cells
row,Structure (SMILES),half-life at 1 μM
1,"COP(=S)(OC)Oc1ccc([N+](=O)[O-])cc1 [MPS, OO, -dimethyl O-4-nitrophenyl phosphorothioate]",91.7 h
2,"COP(=O)(OC)Oc1ccc([N+](=O)[O-])cc1 [MPO, methyl paraoxon]",102 h
